# Measured affinities in a library of Ab-14 light chain variants

Source: Li et al. 2023 (doi:10.1038/s41467-023-39022-2), MIT Lincoln Laboratory and A-Alpha Bio; data file from the FLAb repository.

Target peptide (SARS-CoV-2 spike, HR2 region): PDVDLGDISGINAS

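Designed CDR sequences, proposed from the first random library and measured here. Their group label is 14L_GP_HC (GP: Gaussian process model; HC: hill climbing; a sequence that several methods proposed may carry one label only). Affinity was read by AlphaSeq, a pooled yeast mating assay with surface-displayed partners. Binding brings cells together so that they mate, and sequencing counts the barcode pairs among the diploids. A regression on co-assayed BCL2-family reference pairs converts the normalised counts of each replicate to an apparent Kd. The assay was run in six technical replicates.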

Ab-14 is the parent antibody, in scFv form: VH, then a 15-residue (Gly4Ser)3 linker, then VL. The heavy chain is unchanged in all variants.
VH: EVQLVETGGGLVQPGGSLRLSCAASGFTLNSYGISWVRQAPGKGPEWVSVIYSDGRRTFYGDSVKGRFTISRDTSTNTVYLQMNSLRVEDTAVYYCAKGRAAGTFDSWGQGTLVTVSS
VL: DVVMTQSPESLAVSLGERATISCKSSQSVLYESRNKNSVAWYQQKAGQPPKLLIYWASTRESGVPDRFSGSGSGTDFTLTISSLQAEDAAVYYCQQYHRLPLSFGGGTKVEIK

Changes read parent residue, position, new residue, counted from the first residue of the VL shown.
The read-out is the apparent dissociation constant on a log10 scale (nM): the lower, the stronger.
An entry "ND" has no value in the source: the pair was not observed among the diploids in that replicate. This suggests poor binding but is not conclusive.

| changes | log10 Kd, replicates | signal with controls |
|---|---|---|
| S25V V29F K36V W56G | -0.10 / -0.11 / -0.20 / -0.35 / -0.32 / -0.05 | 2 of 18 (3.04) |
| S28L V29Y W56G | 0.80 / 0.52 / 0.35 / 0.14 / 0.79 / 0.84 | 2 of 18 (2.60) |
| S25F S26Y N35T W56N R99Q | 0.57 / 0.70 / 0.85 / 0.84 / 0.62 / 0.97 | 1 of 18 (3.05) |
| S25L L30K Y31M W56D | 0.01 / 0.11 / -0.02 / -0.11 / -0.04 / 0.09 | 1 of 18 (1.59) |
| Q27W W56D | ND / ND / ND / ND / ND / ND | 0 of 18 |
| S26P L30D W56N S62D Q96S | 0.02 / -0.01 / 0.06 / -0.09 / -0.12 / 0.09 | 1 of 18 (3.05) |
| V29F K36V W56G S62V | -0.19 / -0.21 / -0.41 / -0.34 / -0.44 / -0.26 | 0 of 18 |
| L30A Y31M K36P W56D | -0.09 / -0.29 / -0.43 / -0.47 / -0.49 / -0.26 | 1 of 18 (1.86) |
| K24H Q27P L30S W56N T59Y | 1.09 / 0.48 / 0.69 / 0.59 / 0.45 / 0.73 | 1 of 18 (3.68) |
| Q27W Y31M W56D | 0.06 / -0.02 / -0.07 / -0.32 / 0.22 / 0.10 | 0 of 18 |
| L30D Y31V W56D | 0.03 / 0.09 / -0.04 / -0.06 / 0.00 / 0.13 | 1 of 18 (3.07) |
| K24H S25L V29W W56G A57G S58N | 0.24 / -0.01 / 0.00 / 0.06 / 0.29 / 0.47 | 0 of 18 |
| S25F L30M N35T W56N | -0.46 / -0.41 / -0.53 / -0.49 / -0.36 / -0.45 | 2 of 18 (1.76) |
| S25L V29W W56D A57G | 0.10 / -0.04 / -0.32 / -0.21 / -0.08 / 0.27 | 2 of 18 (2.47) |
| S25Q S28L Y31F W56D | 0.05 / -0.06 / -0.14 / -0.30 / -0.29 / 0.07 | 0 of 18 |
| Q27P S38N W56N | 0.25 / 0.54 / 0.42 / 0.61 / 0.64 / 0.74 | 1 of 18 (1.45) |
| S25V V29D Y31C W56D | 0.76 / 0.84 / 1.06 / 0.76 / 1.18 / 0.87 | 0 of 18 |
| S26L Q27W Y31Q R34N W56H S62D | 0.81 / 0.81 / 1.01 / 0.52 / 1.27 / 0.63 | 0 of 18 |
| S26Q V29Q K36F W56H E61L S62D | 3.14 / 2.92 / 3.05 / 3.41 / ND / 3.16 | 0 of 18 |
| V29W W56G T59K S62V | -0.22 / -0.12 / -0.17 / -0.32 / -0.29 / -0.19 | 1 of 18 (2.83) |
| K24S S25F N35V W56N | -0.05 / -0.06 / -0.15 / -0.11 / 0.02 / -0.10 | 2 of 18 (2.03) |
| Q27F R34H W56N E61M | 1.61 / 1.46 / 1.02 / 1.52 / 1.25 / 0.94 | 0 of 18 |
| S25A S26Q S28G W56G | 0.12 / 0.05 / -0.04 / -0.19 / 0.09 / 0.27 | 1 of 18 (3.81) |
| Q27W Y31D W56D E61S | 0.17 / -0.01 / -0.18 / 0.08 / -0.11 / 0.10 | 0 of 18 |
| S25L S26E V29T E61L | -0.06 / 0.13 / 0.16 / 0.03 / -0.07 / 0.13 | 0 of 18 |
| Q27Y V29Y Y31E W56E | 0.64 / 0.16 / 1.49 / 0.30 / 0.82 / 0.84 | 0 of 18 |
| V29W K36F N37W W56H | 0.82 / 0.90 / 0.82 / 1.69 / 1.31 / 1.52 | 0 of 18 |
| S25L S26A Q27N V29T N35Q | 0.85 / 1.21 / 0.89 / 1.14 / 0.71 / 1.03 | 2 of 18 (2.81) |
| S25A V29W W56G S103I | 0.42 / 0.49 / 0.42 / 0.29 / 0.27 / 0.40 | 0 of 18 |
| S25T S26L N35D W56H S62D | 0.85 / 0.52 / 0.63 / 0.94 / 0.64 / 0.81 | 1 of 18 (3.80) |

Repeated from above, the 4 best binders with a signal in all replicates:

changes	log10 Kd, replicates	signal with controls
S25F L30M N35T W56N	-0.46 / -0.41 / -0.53 / -0.49 / -0.36 / -0.45	2 of 18 (1.76)
L30A Y31M K36P W56D	-0.09 / -0.29 / -0.43 / -0.47 / -0.49 / -0.26	1 of 18 (1.86)
V29F K36V W56G S62V	-0.19 / -0.21 / -0.41 / -0.34 / -0.44 / -0.26	0 of 18
V29W W56G T59K S62V	-0.22 / -0.12 / -0.17 / -0.32 / -0.29 / -0.19	1 of 18 (2.83)

Values of this round are not directly comparable with the first-round values of the same sequences.
As a blank, each scFv also met three strains without target: over all light chain designs, 4% of these pairings were detected, typically at 2.64 and seldom below 1.59. Also given: how often the same scFv was detected with the empty control strains, with their mean in brackets.
The authors' rule: three or more of the six replicates give a measured affinity, fewer mean a poor binder.
Of ten entries with the parent sequence, four were seen in most replicates (averages 0.34 to 2.37), three in one and three in none, so single entries are noisy.